Literature values in patent US11541063B2, “Compositions and products for use in the treatment of bone fractures and defects” (priority 2014, dated 2023).

System: androgen receptor
Settings: fraction of testosterone potency; cited from earlier work

In the case of `C[C@]12CC[C@@H](O)C[C@@H]1CC[C@@H]1[C@@H]2CC[C@]2(C)C(=O)CC[C@@H]12` [androsterone], the “potency relative to the potency of testosterone” value is given as “approximately 1/7”.
